IC50 data for 1 molecule are collected here from publication PMC7951137 (ACS chemical neuroscience, 2021).

Sequences of proteins named here, by UniProt entry; tags and fusion partners are left off.
UniProt P32245, whole entry: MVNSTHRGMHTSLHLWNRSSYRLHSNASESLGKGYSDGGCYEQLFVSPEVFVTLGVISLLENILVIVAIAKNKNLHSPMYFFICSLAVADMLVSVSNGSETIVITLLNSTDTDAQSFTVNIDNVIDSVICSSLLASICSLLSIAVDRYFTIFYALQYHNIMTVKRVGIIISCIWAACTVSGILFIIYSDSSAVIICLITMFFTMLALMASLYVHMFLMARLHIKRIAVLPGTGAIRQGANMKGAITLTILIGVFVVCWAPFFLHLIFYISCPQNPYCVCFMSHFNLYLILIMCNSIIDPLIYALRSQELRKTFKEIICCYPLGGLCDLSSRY

Test [1] addresses T1, human melanocortin-4 receptor (hMC4R), wild type, N-terminal FLAG-tagged (human, UniProt P32245 1-332). Put plainly: radioligand binding.
For test [2], the target named is T1, human melanocortin-4 receptor (hMC4R), …. In words: radioligand binding. The source holds these as a separate data set.

Where two headings read alike, the source gives them in different places.

In general, IC50 refers to the concentration that gives 50% inhibition. Take PRFFHAFP (DPro at position 8; cyclized head-to-tail through the DPro-Pro motif) [MDE3–119-13c]: the results for the 50% inhibitory concentration (IC50) in test [1] and in test [2] were 120 nM and 44 nM, respectively.
